The source of these data is patent US11066398B2, “Small molecule c-Myc inhibitors” (THE SCRIPPS RESEARCH INSTITUTE, priority 2013, dated 2021).

Chains of the proteins cited; added tags and fusions are not shown.
UniProt P42336, whole entry H1047R: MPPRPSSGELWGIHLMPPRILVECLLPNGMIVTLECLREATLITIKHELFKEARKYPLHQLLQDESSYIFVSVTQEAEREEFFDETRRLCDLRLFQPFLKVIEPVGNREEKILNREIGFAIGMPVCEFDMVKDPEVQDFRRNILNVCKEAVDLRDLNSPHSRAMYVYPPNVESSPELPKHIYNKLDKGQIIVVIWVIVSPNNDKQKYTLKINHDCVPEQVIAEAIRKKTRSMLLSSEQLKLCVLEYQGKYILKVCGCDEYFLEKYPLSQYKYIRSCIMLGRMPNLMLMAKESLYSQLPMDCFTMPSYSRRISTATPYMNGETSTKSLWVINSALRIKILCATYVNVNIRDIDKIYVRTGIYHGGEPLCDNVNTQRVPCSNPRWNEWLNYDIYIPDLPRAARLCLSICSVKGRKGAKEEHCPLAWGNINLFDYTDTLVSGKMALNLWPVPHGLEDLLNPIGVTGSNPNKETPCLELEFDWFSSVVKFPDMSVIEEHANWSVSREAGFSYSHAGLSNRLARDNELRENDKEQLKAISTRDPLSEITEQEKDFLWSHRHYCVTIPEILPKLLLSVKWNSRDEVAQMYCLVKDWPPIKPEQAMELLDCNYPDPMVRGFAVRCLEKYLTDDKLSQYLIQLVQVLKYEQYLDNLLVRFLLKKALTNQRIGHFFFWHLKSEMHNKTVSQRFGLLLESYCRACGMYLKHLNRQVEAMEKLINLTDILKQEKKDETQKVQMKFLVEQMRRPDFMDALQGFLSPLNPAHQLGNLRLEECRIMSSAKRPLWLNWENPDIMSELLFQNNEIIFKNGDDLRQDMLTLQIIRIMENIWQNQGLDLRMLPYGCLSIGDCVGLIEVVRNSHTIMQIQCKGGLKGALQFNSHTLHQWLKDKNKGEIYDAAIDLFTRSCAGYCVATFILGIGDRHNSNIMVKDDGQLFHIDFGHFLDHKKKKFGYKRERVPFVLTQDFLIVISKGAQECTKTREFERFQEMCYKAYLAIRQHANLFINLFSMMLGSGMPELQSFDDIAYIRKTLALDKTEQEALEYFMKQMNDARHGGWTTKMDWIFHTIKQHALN

The structures appear in SMILES notation.

For this experiment, the target named is H1047R mutant of phosphatidylinositol 3-kinase (Homo sapiens, UniProt P42336, H1047R). The following applies: CEF, dose response.

With `NC(=O)c1ccc(-c2cc(-c3ccc([N+](=O)[O-])cc3)nc(-c3ccco3)c2)cc1` [CG-RS-44, 4-(2-(furan-2-yl)-6-(4-nitrophenyl)pyridin-4-yl)benzamide], the “Inhibition of oncogenic transformation by PI3K H1047R” value was “inhibited at significantly higher concentrations”.
